# Data taken from PMC3412876 (Chemical communications (Cambridge, England), 2011).
# Conditions: circular dichroism, 10% trifluoroethanol in phosphate buffered saline; estimated from mean residue ellipticity at 222 nm
row,% Helicity [%],Structure (SMILES)
1,48,CC(C)C[C@H](NC(=O)[C@H](CC(C)C)NC(=O)[C@H](CCCCN)NC(=O)[C@H](Cc1c[nH]c2ccccc12)NC(=O)[C@H](CC(C)C)NC(=O)[C@H](CC(=O)O)NC(=O)[C@H](CO)NC(=O)[C@H](Cc1ccccc1)NC(=O)CN1C/C=C/CCC(=O)N[C@@H](CCC(N)=O)C(=O)N[C@@H](CCC(=O)O)C1=O)C(=O)N[C@@H](CO)C(N)=O [HBS α-helix 2]
2,54,CC(C)C[C@H](NC(=O)[C@H](CC(C)C)NC(=O)[C@H](CCCCN)NC(=O)[C@H](Cc1c[nH]c2ccccc12)NC(=O)[C@H](CC(C)C)NC(=O)[C@H](CC(=O)O)NC(=O)[C@H](CO)NC(=O)[C@H](Cc1ccccc1)NC(=O)CN1CCSCCC(=O)N[C@@H](CCC(N)=O)C(=O)N[C@@H](CCC(=O)O)C1=O)C(=O)N[C@@H](CO)C(N)=O [teHBS α-helix 1]
